In patent US20240189490A1, “ANTIMICROBIAL ELUTING AIRWAY DEVICES” (priority 2021, published 2024) one finds linear release data, which are given here for one substance.

The series can be described thus: Release of loaded protein or peptide from coated ET tubes in PBS. Type of series: physicochemical. The following applies: from PLGA coated ET tubes, PBS at 37° C. shaking at 100 rpm, after initial burst release. The procedure: Release Quantification. Release of loaded protein or peptide from ET tubes was achieved from quartered tube segments in PBS at 37° C. while shaking at 100 rpm. FITC-BSA elution and PLGA degradation samples were obtained by completely removing the supernatant and adding fresh PBS to each well. FITC-BSA release was measured via fluorescence on a Synergy H1 Microplate Reader (BioTek) with 485 nm excitation and 515 nm emission wavelengths. PLGA degradation was quantified via EnzyFluo L-Lactate Assay Kit (Bioassay Systems). Peptide release was quantified via Pierce Quantitative Fluorometric Peptide Assay (Thermo Scientific). Total encapsulation of FITC-BSA coated tubes was determined by 2.5M NaOH degradation at room temperature rotating at 40 rpm for 72 hours and measuring fluorescence as previously described.

Turning to “albumin-fluorescein isothiocyanate conjugate [FITC-BSA]”, the linear release came to 1.89 µg/day.
